From patent US5302602A, “Tricyclic thromboxane A2 antagonists” (Kyowa Hakko Kogyo Co., Ltd., priority 1987, dated 1994)

The chains behind the UniProt entries cited, without tags or fusion partners.
UniProt P31389, whole entry: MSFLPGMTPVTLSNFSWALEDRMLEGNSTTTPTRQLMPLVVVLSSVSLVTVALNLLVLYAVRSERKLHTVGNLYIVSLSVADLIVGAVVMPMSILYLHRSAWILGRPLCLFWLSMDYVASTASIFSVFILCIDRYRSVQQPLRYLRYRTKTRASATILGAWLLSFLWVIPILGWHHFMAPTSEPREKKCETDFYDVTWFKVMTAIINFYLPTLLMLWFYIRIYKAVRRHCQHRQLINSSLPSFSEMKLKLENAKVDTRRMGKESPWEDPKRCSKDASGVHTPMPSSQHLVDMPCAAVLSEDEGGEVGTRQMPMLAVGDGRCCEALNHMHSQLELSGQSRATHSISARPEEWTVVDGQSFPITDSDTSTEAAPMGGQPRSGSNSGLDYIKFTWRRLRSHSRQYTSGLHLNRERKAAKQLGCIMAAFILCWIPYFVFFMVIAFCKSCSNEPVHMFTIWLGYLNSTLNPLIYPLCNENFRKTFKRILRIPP

Target: T1, histamine H1 receptor (Cavia porcellus, UniProt P31389)
T1 construct: from tissue; host or cells: guinea pig cerebellum membranes
Assay: Binding study using 3H-pyrilamine (histamine H1 receptor binding)
Parameters: species or system guinea pig
Settings: read-out: (%) Inhibition (3H-pyrilamine binding)
Description: Receptor binding was determined by the method of chang et al. [J. Neurochem., 32, 1953 (1979)].
The cerebellum of guinea pig was suspended in a 40-fold amount (V/W) of chilled 50 mM phosphate buffer (pH 7.5) with Polytron Homogenizer (Kinematica Co., Ltd.). The suspension was centrifuged (35,500×g, 10 minutes). The resulting precipitates were resuspended in an equal amount of fresh buffer followed by centrifugation. A 100-fold amount (V/W) of chilled buffer was added to the final precipitates.
To 1 ml of the membrane suspension adjusted as described above were added 50 μl of tritium-labeled pyrilamine (^3 H-pyrilamine; NEN Co., Ltd.) and 50 μl of a test compound. […] Hereafter procedures were performed in a manner similar to the TXA2 receptor binding test to determine radioactivity.
An inhibitory activity of the test compound against H1 receptor was calculated by the following equation. […]
Amount of the total binding is an amount of ^3 H-pyrilamine-bound radioactivity in the absence of a test compound.
The amount of non-specific binding is an amount of ^3 H-pyrilamine-bound radioactivity in the presence of 3 μM Astemizole (manufactured by Janesen Pharmaceutics).
The amount bound in the presence of a test compound is an amount of ^3 H-pyrilamine-bound radioactivity in the presence of a test compound in various concentrations.

Q: For `CN1CCC(=C2c3ccccc3CC(=O)c3sccc32)CC1` [Ketotifen, reference compound], which inhibition at 1 µM is on record?
A: 100%
